Data on 1 compound can be found in publication PMC11109662, “Discovery of Novel Anti‐Resistance AR Antagonists Guided by Funnel Metadynamics Simulation” (Advanced Science, 2024).

Chains of the proteins cited; added tags and fusions are not shown.
UniProt P10275, whole entry: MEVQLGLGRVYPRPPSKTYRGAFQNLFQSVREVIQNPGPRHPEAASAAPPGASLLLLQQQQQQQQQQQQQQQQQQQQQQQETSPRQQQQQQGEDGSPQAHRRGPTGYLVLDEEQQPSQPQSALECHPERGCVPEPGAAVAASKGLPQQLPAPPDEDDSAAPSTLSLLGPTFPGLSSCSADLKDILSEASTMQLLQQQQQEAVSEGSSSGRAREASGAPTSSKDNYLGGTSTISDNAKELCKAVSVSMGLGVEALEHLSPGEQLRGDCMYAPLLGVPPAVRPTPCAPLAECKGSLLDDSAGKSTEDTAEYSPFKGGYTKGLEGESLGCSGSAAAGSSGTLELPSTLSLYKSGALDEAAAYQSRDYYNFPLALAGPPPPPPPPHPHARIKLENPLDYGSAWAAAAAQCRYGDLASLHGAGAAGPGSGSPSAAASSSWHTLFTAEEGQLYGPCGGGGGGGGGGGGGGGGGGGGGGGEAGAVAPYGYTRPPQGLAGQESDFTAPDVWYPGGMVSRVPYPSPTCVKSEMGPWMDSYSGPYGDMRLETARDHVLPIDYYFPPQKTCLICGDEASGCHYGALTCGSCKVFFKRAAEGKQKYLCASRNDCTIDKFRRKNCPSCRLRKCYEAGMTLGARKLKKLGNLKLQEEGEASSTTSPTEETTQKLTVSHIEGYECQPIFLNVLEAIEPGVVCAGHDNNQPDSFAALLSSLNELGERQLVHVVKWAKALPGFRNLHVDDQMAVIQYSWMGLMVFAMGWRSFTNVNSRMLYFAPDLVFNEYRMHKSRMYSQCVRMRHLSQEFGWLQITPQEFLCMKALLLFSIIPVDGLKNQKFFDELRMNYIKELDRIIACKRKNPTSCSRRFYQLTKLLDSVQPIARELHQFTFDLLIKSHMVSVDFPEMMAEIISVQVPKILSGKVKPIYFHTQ
UniProt P10275, whole entry F877L: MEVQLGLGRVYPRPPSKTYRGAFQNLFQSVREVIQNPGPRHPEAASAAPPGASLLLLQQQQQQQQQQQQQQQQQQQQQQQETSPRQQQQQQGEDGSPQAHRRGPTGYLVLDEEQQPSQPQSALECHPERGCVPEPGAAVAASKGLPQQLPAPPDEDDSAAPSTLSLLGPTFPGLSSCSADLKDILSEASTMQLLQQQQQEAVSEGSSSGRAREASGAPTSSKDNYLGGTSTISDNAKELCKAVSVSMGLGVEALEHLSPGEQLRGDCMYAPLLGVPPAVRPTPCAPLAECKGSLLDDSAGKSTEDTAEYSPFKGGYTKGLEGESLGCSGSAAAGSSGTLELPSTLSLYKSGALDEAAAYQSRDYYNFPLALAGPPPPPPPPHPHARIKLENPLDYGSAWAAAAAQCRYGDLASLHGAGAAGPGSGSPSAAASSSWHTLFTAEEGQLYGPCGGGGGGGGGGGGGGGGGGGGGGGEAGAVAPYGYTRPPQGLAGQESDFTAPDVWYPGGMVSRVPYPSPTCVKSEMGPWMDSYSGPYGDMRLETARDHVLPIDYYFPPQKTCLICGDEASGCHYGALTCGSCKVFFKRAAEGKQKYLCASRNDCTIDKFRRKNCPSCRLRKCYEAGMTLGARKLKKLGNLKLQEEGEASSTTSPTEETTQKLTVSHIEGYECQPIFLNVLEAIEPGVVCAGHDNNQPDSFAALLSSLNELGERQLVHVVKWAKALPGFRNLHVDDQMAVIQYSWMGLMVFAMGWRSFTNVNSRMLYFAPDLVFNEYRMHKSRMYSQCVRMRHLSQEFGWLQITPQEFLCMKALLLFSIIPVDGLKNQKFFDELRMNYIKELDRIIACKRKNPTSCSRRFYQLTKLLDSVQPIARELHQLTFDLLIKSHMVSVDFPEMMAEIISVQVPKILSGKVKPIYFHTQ
UniProt P10275, whole entry T878G: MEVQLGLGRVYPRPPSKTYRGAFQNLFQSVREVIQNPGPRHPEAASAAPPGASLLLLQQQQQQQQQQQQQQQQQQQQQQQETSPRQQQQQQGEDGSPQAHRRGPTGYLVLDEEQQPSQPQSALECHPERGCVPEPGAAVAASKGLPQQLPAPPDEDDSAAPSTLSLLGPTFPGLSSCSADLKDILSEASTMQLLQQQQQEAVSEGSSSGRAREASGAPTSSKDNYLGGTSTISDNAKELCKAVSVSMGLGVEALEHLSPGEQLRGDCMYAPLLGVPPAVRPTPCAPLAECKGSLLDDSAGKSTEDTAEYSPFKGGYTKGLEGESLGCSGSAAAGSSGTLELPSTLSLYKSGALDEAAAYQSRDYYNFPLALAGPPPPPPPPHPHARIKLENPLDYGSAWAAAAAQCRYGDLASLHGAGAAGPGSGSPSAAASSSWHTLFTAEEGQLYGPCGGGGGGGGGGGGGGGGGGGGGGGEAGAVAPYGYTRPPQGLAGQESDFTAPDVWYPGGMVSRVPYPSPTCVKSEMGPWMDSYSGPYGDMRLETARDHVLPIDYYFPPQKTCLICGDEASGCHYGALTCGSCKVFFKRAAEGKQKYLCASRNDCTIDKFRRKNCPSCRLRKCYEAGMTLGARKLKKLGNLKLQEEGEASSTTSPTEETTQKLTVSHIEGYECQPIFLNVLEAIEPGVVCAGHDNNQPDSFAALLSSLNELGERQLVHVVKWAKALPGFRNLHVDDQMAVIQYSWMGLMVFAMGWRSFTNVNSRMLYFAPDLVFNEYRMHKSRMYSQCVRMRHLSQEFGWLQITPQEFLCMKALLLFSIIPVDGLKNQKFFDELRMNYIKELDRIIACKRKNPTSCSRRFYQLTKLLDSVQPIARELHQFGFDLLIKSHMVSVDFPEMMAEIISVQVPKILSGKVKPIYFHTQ
UniProt P10275, whole entry W742C: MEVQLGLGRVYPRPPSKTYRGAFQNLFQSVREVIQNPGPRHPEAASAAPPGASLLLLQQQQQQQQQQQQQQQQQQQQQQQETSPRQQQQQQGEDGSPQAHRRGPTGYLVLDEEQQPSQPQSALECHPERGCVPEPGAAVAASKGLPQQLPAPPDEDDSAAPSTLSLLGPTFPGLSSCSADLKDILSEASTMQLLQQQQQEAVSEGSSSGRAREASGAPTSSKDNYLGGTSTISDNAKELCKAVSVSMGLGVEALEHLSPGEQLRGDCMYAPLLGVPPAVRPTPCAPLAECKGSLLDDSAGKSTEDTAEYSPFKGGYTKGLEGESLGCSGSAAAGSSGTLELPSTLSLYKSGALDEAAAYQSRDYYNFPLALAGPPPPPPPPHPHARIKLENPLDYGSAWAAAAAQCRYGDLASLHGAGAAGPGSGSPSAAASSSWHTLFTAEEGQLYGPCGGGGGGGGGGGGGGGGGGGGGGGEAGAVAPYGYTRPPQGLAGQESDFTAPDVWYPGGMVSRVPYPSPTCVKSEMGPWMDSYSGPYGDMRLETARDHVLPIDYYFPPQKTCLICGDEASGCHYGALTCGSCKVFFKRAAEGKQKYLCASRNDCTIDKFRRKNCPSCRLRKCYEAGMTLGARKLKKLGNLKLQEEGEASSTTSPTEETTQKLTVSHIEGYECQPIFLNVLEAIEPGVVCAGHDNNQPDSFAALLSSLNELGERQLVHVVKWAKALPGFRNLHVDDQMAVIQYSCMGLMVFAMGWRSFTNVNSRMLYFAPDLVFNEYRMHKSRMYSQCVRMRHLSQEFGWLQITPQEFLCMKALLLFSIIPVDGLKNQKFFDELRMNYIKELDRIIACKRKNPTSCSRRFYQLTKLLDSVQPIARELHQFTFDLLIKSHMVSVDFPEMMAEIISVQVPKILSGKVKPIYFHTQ
UniProt P10275, whole entry F877L/T878A: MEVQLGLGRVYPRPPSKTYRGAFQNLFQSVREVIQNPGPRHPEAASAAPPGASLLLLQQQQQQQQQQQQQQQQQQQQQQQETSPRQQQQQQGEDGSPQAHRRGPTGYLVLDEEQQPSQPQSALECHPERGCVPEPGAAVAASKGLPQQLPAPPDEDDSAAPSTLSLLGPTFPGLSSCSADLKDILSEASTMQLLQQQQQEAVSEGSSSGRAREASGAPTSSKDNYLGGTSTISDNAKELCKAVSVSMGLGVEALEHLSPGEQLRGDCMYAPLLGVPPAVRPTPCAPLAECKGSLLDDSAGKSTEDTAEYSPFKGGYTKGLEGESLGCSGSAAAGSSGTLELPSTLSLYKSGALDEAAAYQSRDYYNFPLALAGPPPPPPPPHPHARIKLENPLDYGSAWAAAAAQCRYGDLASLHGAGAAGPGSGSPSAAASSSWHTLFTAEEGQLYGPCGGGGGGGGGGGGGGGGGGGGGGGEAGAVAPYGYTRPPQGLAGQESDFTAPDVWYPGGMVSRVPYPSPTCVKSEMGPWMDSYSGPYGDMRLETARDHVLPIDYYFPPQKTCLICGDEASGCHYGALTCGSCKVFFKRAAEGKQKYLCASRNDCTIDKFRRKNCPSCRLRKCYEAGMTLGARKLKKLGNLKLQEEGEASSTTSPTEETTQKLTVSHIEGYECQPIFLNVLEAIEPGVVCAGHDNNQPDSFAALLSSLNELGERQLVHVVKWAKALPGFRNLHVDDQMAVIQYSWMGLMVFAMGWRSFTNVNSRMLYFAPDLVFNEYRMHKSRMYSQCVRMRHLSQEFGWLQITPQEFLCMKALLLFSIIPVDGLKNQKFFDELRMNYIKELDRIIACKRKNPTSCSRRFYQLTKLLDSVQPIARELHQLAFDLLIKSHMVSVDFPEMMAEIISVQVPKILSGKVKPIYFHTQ

Common to all, as to assay: dual luciferase reporter gene assay in PC3 cells
Assay [1] concerns the target WT-AR (hAR) (Homo sapiens, UniProt P10275). The note with it: read-out: AR transcriptional activity IC50 [μM] / WT-AR; antagonist mode, […] DHT, […] h.
For assay [2], the target named is WT-AR (hAR) (Homo sapiens, UniProt P10275, F877L/T878A). To be noted: read-out: AR transcriptional activity IC50 [μM] / F876L/T877A; antagonist mode, […] DHT, […] h; stated gain.
For assay [3], the target named is WT-AR (hAR) (Homo sapiens, UniProt P10275, F877L). To be noted: read-out: AR transcriptional activity IC50 [μM] / F876L; antagonist mode, […] DHT, […] h; stated gain.
Assay [4] has as its target WT-AR (hAR) (Homo sapiens, UniProt P10275, W742C). The note with it: read-out: AR transcriptional activity IC50 [μM] / W741C; antagonist mode, […] DHT, […] h; stated gain.
The target of assay [5] is WT-AR (hAR) (Homo sapiens, UniProt P10275, T878G). The note with it: read-out: AR transcriptional activity IC50 [μM] / T877G; antagonist mode, […] DHT, […] h; stated gain.

For the compound `O=C1Sc2ccc(S(=O)(=O)Nc3ccc(O)cc3)c3cccc1c23`, the IC50 amounted to 1.17 µM on WT-AR (hAR) [1]; 0.35 µM on WT-AR (hAR) [2]; 0.35 µM at WT-AR (hAR) [3]; 0.33 µM on WT-AR (hAR) [4]; 0.06 µM on WT-AR (hAR) [5].
